The values that follow are results of earlier work, collected in patent US20050003431A1, “Monovalent, multivalent, and multimeric MHC binding domain fusion proteins and conjugates, and uses therefor” (priority 1996, published 2005).

The chains behind the UniProt entries cited, without tags or fusion partners. Residues count along the entry.
UniProt P01903, 26-254 limits assumed: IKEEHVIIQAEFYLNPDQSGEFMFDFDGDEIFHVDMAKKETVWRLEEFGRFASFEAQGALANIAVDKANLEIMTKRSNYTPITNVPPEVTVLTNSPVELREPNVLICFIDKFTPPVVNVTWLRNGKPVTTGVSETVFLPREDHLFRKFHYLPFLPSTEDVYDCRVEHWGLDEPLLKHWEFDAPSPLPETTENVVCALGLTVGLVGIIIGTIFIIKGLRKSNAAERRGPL
UniProt P01911, 30-266 limits assumed: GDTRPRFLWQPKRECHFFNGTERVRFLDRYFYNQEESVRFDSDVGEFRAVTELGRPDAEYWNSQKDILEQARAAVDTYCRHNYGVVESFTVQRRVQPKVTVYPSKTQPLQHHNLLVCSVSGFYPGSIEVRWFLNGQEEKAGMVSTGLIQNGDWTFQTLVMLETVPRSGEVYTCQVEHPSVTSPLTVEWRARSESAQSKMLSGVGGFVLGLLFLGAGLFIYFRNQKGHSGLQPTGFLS

The series deals with HLA-DR2 (encoded by the DRA, DRB1*1501 genes) (Homo sapiens, UniProt P01903+P01911). The following applies: cited from earlier work.

For the compound `CC[C@H](C)[C@H](NC(=O)[C@H](CC(N)=O)NC(=O)[C@H](CCCCN)NC(=O)[C@H](Cc1ccccc1)NC(=O)[C@H](Cc1ccccc1)NC(=O)[C@H](Cc1cnc[nH]1)NC(=O)[C@@H](NC(=O)[C@@H](NC(=O)[C@@H]1CCCN1C(=O)[C@H](CC(N)=O)NC(=O)[C@@H](N)CCC(=O)O)C(C)C)C(C)C)C(=O)N[C@H](C(=O)N[C@H](C(=O)N1CCC[C@H]1C(=O)N[C@@H](CCCNC(=N)N)C(=O)O)[C@@H](C)O)C(C)C`, the “affinity for purified DR2” value is reported as “high affinity”.
